From US5510355A, “Depolarizing skeletal muscle relaxants” (priority 1994, dated 1996) come the findings set out here.

The subject of this experiment is ganglionic-type neuronal nicotinic receptors (rat pheochromocytoma clonal line PC12). Type of experiment: cell-based. As to conditions: read-out: RAT GANGLIA EC50 (concentration resulting in half maximal activation of specific ion flux), PC12, 86Rb+ efflux, 4 minutes at 20° C. The procedure:
The selectivity at muscle nicotinic receptors of the various analogs described in this invention was determined by their functional efficacies and potencies at muscle and ganglionic sites.
Ganglionic effects were established on the rat pheochromocytoma clonal line PC12 which is a continuous clonal cell line of neural crest origin derived from a tumor of the rat adrenal medulla expressing ganglionic-type neuronal nicotinic receptors. […] Discussion concerning the heterogeneity of nicotinic receptors subtypes is set forth in Lukas et al., Internatl. […] Acetylcholine nicotinic receptors expressed in rat ganglia share a very high degree of homology with their human counterparts. See, Fornasari et al., Neurosci.
Intact cells on dishes were used for functional studies.
The medium was removed and ^86 Rb^+ was quantitated using Cerenkov detection. […] Specific ion efflux was determined as the difference in isotope efflux between total and non-specific efflux samples. Dose-response curves were plotted and the concentration resulting in half maximal activation of specific ion flux through nicotinic receptors determined for human muscle and rat ganglionic preparations (EC50).

The structures appear in SMILES notation.

As to `CC(=O)OCC[N+](C)(C)C` [C-1, acetylcholine, reference compound], the EC50 was 40 µM.
